Test results: ChEMBL document CHEMBL3352540, “New efficient imidazolium aldoxime reactivators for nerve agent-inhibited acetylcholinesterase” (2014)

Sequences of proteins named here, by UniProt entry; tags and fusion partners are left off. A change or cut given only in a name is not applied to a line headed by its entry.
UniProt P22303: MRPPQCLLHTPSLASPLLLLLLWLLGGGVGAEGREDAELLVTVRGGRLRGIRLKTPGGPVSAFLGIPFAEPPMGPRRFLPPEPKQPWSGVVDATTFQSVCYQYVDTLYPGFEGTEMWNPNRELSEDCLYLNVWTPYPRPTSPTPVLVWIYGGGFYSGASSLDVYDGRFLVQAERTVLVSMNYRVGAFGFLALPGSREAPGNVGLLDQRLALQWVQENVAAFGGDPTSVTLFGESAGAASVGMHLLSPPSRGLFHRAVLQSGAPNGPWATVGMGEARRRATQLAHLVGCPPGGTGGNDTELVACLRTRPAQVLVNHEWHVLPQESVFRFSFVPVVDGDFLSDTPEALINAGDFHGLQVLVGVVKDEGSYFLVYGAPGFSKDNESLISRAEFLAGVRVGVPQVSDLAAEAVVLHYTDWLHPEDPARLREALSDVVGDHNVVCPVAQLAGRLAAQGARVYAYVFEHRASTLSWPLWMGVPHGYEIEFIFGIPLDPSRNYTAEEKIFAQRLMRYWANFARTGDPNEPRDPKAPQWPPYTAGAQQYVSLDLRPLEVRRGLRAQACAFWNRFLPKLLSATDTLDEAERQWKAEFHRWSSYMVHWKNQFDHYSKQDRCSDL

Key:
[1] = target: Acetylcholinesterase (Homo sapiens) (UniProt P22303); assay: Reactivation of sarin-inhibited human acetylcholinesterase assessed as reactivation rate constant
[2] = target: Acetylcholinesterase (Homo sapiens) (UniProt P22303); assay: Reactivation of VX-inhibited human acetylcholinesterase assessed as reactivation rate constant
[3] = target: Acetylcholinesterase (Homo sapiens) (UniProt P22303); assay: Reactivation of VX-inhibited human acetylcholinesterase assessed as second order reactivation rate constant
[4] = target: Acetylcholinesterase (Homo sapiens) (UniProt P22303); assay: Reactivation of tabun-inhibited human acetylcholinesterase assessed as second order reactivation rate constant
[5] = target: Acetylcholinesterase (Homo sapiens) (UniProt P22303); assay: Reactivation of sarin-inhibited human acetylcholinesterase assessed as second order reactivation rate constant
[6] = target: Acetylcholinesterase (Homo sapiens) (UniProt P22303); assay: Reactivation of tabun-inhibited human acetylcholinesterase assessed as reactivation rate constant
[7] = target: Acetylcholinesterase (Homo sapiens) (UniProt P22303); assay: Reactivation of VX-inhibited human acetylcholinesterase at 1 mM in pH 7.4 phosphate buffer at 37 degC by Ellman's method; parameters: scale not given: the % may be the effect or the level left
[8] = target: Acetylcholinesterase (Homo sapiens) (UniProt P22303); assay: Reactivation of VX-inhibited human acetylcholinesterase at 0.1 mM in pH 7.4 phosphate buffer at 37 degC by Ellman's method; parameters: scale not given: the % may be the effect or the level left
[9] = target: Acetylcholinesterase (Homo sapiens) (UniProt P22303); assay: Reactivation of sarin-inhibited human acetylcholinesterase at 0.1 mM in pH 7.4 phosphate buffer at 37 degC by Ellman's method; parameters: scale not given: the % may be the effect or the level left
[10] = target: Acetylcholinesterase (Homo sapiens) (UniProt P22303); assay: Inhibition of human acetylcholinesterase assessed as remaining enzyme activity at 0.1 mM by Ellman's method
[11] = target: Acetylcholinesterase (Homo sapiens) (UniProt P22303); assay: Reactivation of tabun-inhibited human acetylcholinesterase at 1 mM in pH 7.4 phosphate buffer at 37 degC by Ellman's method; parameters: scale not given: the % may be the effect or the level left
[12] = target: Acetylcholinesterase (Homo sapiens) (UniProt P22303); assay: Reactivation of sarin-inhibited human acetylcholinesterase at 1 mM in pH 7.4 phosphate buffer at 37 degC by Ellman's method; parameters: scale not given: the % may be the effect or the level left
[13] = target: Acetylcholinesterase (Homo sapiens) (UniProt P22303); assay: Inhibition of human acetylcholinesterase at 1 mM by Ellman's method
[14] = target: Acetylcholinesterase (Homo sapiens) (UniProt P22303); assay: Reactivation of tabun-inhibited human acetylcholinesterase at 0.1 mM in pH 7.4 phosphate buffer at 37 degC by Ellman's method; parameters: scale not given: the % may be the effect or the level left
[15] = target: Acetylcholinesterase (Homo sapiens) (UniProt P22303); assay: Inhibition of human acetylcholinesterase assessed as remaining enzyme activity at 1 mM measured after erythrocyte wash out by Ellman's method

| SMILES | Kr [1] [min⁻¹] | Kr [2] [min⁻¹] | Kr [3] [M⁻¹ s⁻¹] | Kr [4] [M⁻¹ s⁻¹] | Kr [5] [M⁻¹ s⁻¹] | Kr [6] [min⁻¹] | Activity [7] [%] | Activity [8] [%] | Activity [9] [%] | Activity [10] [%] | Activity [11] [%] | Activity [12] [%] | inhibition [13] [%] | Activity [14] [%] | Activity [15] [%] |
| --- | --- | --- | --- | --- | --- | --- | --- | --- | --- | --- | --- | --- | --- | --- | --- |
| COc1cc2c(cc1OC)C(c1ccccc1)N(CCCCCCn1ccnc1/C=N/O)CC2 (configuration not stated) | 0.033 | 0.21 | 140 | 14.3 | 13.5 | 0.012 |  |  |  |  |  |  |  |  |  |
| COc1cc2c(cc1OC)CN(CCCCn1ccnc1/C=N/O)CC2 |  |  |  |  |  |  | 68 | 28 | 0 | > 85 | 1 | 8 | < 40 | 1 |  |
| COc1cc2c(cc1OC)CN(CCCCCCn1ccnc1/C=N/O)CC2 |  |  |  |  |  |  | 89 | 54 | 6 | > 85 | 17 | 34 | < 40 | 32 |  |
| O/N=C/c1ncc[nH]1 |  |  |  |  |  |  | 8 | 7 | 3 |  | 10 | 5 |  | 3 |  |
| COc1cc2c(cc1OC)C(c1ccccc1)N(CCCn1ccnc1/C=N/O)CC2 (configuration not stated) |  |  |  |  |  |  | 13 | 3 | 0 | > 85 | 1 | 2 | < 40 | 0 |  |
| COc1cc2c(cc1OC)C(c1ccccc1)N(CCCCCn1ccnc1/C=N/O)CC2 (configuration not stated) | 0.04 | 0.14 | 95.8 | 6 | 4.67 | 0.009 | 92 | 67 | 21 | > 85 | 47 | 69 | 36 | 33 | 95 |
| O/N=C/c1cc[n+](CCC[n+]2ccc(/C=N/O)cc2)cc1 |  |  |  | 11.7 |  | 0.056 |  |  |  |  |  |  |  |  |  |
| O/N=C/c1cc[n+](C[n+]2ccc(/C=N/O)cc2)cc1 |  |  |  |  |  |  | 71 | 23 |  |  | 21 | 49 |  | 5 |  |
| COc1cc2c(cc1OC)C(c1ccccc1)N(CCCCn1ccnc1/C=N/O)CC2 (configuration not stated) |  |  |  |  |  |  | 47 | 6 | 4 | > 85 | 5 | 27 | < 40 | 3 |  |
| COc1cc2c(cc1OC)CN(CCCn1ccnc1/C=N/O)CC2 |  |  |  |  |  |  | 31 | -1 | -2 | > 85 | 2 | -2 | < 40 | -1 |  |
| COc1cc2c(cc1OC)C(c1ccccc1)N(CCCCCc1ccc(O)c(/C=N/O)n1)CC2 (configuration not stated) | 0.063 | 0.22 | 167 | 25.7 | 12 | 0.027 | 84 | 68 | 64 | > 85 | 68 | 68 | 51 | 54 | 73 |
| COc1cc2c(cc1OC)CN(CCCCCn1ccnc1/C=N/O)CC2 |  |  |  |  |  |  | 89 | 46 | 2 | > 85 | 7 | 14 | < 40 | 5 |  |
